Assay results: PubChem BioAssay AID588795 (National Center for Advancing Translational Sciences (NCATS), 2011)
Only a part is listed here, and it is no random draw. Some salts or complexes appear as unconnected parts, following the source record. The source made the active and inactive calls. The call rests on the fitted dose curve; in most records, active means well fitted inhibition curve with a large enough effect; inconclusive means small, poorly fitted or top-dose-only effect; inactive means no such curve, though single readings can be large or run the other way.

By UniProt entry, the sequences of proteins in these tests, tags left out.
UniProt P39748, whole entry: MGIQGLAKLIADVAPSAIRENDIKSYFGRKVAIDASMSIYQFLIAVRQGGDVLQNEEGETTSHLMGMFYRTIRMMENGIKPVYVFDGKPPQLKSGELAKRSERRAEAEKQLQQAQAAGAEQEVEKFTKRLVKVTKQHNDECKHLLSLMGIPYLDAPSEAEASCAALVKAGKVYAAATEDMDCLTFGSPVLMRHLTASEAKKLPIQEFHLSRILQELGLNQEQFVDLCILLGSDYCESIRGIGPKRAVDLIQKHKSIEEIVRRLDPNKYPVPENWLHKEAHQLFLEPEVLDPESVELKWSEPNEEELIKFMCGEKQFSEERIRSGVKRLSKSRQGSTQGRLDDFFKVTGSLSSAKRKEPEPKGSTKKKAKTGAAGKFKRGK

biological target: Flap endonuclease 1 (Homo sapiens) (UniProt P39748); assay: qHTS Assay for the Inhibitors of Human Flap endonuclease 1 (FEN1).; further: nearly all actives have a fitted effect of over 65% in size; conditions: Recombinant FEN1 flap cleavage, fluorescence, 15 min; at 114 µM (top of the series)
On the % scale 0 is the no-effect control and ±100 the full control effect.

SMILES	activity change, negative = inhibition
O=C(NCC1(N2CCOCC2)CCCCC1)c1ccc([N+](=O)[O-])cc1	inactive: -6.46%
CC(C)(C)OC(=O)N1CCC(N(C(=O)c2ccccc2)c2ccc(Cl)cc2)CC1	inactive: -3.08%
N#Cc1ccc(C(=O)NCC2(N3CCCCC3)CCCCC2)cc1	inactive: 0.524%
O=C(NCC1(N2CCOCC2)CCCCC1)c1ccccc1[N+](=O)[O-]	inactive: 2.39%
CCOC(=O)C(CC)C1=NC(C)(C)Cc2ccccc21.O=[N+]([O-])c1cc([N+](=O)[O-])c(O)c([N+](=O)[O-])c1 (configuration not stated)	inactive: -13.7%
c1ccc(CN2CCC(Nc3ccccc3)CC2)cc1	inactive: 7.05%
Cc1cc(N(CCCl)CCCl)ccc1C=O	inactive: -2.9%
O=C(NCC1(N2CCOCC2)CCCCC1)c1ccccc1	inactive: 22.2%
CCCN1CCC(Nc2cc(OC)cc(OC)c2)CC1	inactive: -12.6%
CN(C)C1(CNC(=O)c2cccc(C#N)c2)CCCCC1	inactive: -2.07%
O=C(NCC1(N2CCOCC2)CCCCC1)c1cc(Br)ccc1Cl	inactive: -5.8%
COc1cc(C(=O)NCC2(N3CCOCC3)CCCCC2)cc(OC)c1C	inactive: -7.7%
COc1ccc(C(=O)NCC2(N3CCOCC3)CCCCC2)cc1OC	inactive: 15.4%
O=Cc1ccc(N(CCCl)CCCl)cc1	inactive: -24.6%
N/C(=N\O)c1c(N)no[n+]1[O-]	inactive: -5.46%
CCOC(=O)N1CCC(Nc2ccc(C)cc2)CC1	inactive: 0.487%
CCc1cc(C(=O)NCC2(N3CCCCC3)CCCCC2)sc1C	inactive: 0.756%
O=C(O)c1cccc(Nc2c([N+](=O)[O-])cc([N+](=O)[O-])cc2[N+](=O)[O-])c1	inactive: -27.8%
CCOc1ncccc1C(=O)NCC1(N2CCOCC2)CCCCC1	inactive: -3.42%
CN1CCC(Nc2ccc(F)c(Cl)c2)CC1	inactive: 0.504%
ClCCN(CCCl)c1ccccc1	inactive: -2.89%
CCCOc1ccc(C(=O)NCC2(N(C)C)CCCCC2)cc1	inactive: 18.6%

SMILES	activity change, negative = inhibition
CC(C)(C)OC(=O)N1CCC(Nc2ccccc2)CC1	inactive: 4.1%
O=C(O)C1(Nc2ccccc2)CCN(Cc2ccccc2)CC1	inactive: 1.09%
ClCCN(CCCl)c1ccc(C=C2C=CC=C2)cc1	inactive: -1.98%
CCC(CO)(C(=O)OC1CN2CCC1CC2)c1ccccc1 (configuration not stated)	inactive: -4.84%
COc1cc(OC)cc(C(=O)NCC2(N3CCOCC3)CCCCC2)c1	inactive: 1.26%
COc1cc(C(=O)NCC2(N3CCOCC3)CCCCC2)cc(OC)c1OC	inactive: -2.46%
COc1cccc(C(=O)N(c2cc(C)cc(C)c2)C2CCN(C(=O)OC(C)(C)C)CC2)c1	inactive: -22.1%
CN1CCC(Nc2ccc(Cl)cc2)CC1	inactive: 0.728%
CN(C)C1(CNC(=O)c2ccc(C(C)(C)C)cc2)CCCCC1	inactive: 17.3%
CC(=O)N(c1ccccc1)C1CCNCC1	inactive: -13.9%
Cc1ccc(NC2(C#N)CCN(Cc3ccccc3)CC2)cc1	inactive: -9.15%
Cc1ccc(C(=O)NCC2(N3CCCCC3)CCCCC2)o1	inactive: 6.61%
Fc1ccccc1NC1CCN(Cc2ccccc2)CC1	inactive: 2.81%
Cc1ccccc1NC1(C#N)CCN(Cc2ccccc2)CC1	inactive: 6.95%
CCN1CCC(Nc2cccc(F)c2)CC1	inactive: 7.72%
O=C(NCC1(N2CCCCC2)CCCCC1)c1ccco1	inactive: 0.779%
CC(C)(C)c1ccc(C(=O)NCC2(N3CCOCC3)CCCCC2)cc1	inactive: -11.2%
CN(C)c1ccc(C(=O)NCC2(N3CCCCC3)CCCCC2)cc1	inactive: -2.55%
Cn1c(=O)[nH]cc(N(CCCl)CCCl)c1=O	inactive: 3.42%
Cc1ccccc1C(=O)NCC1(N(C)C)CCCCC1	inactive: -1.66%
CCOc1ccc(C)cc1CN(CCCl)CCCl	inactive: 2.06%
O=C(NCC1(N2CCOCC2)CCCCC1)c1ccc(Cl)cc1	inactive: 13.9%

SMILES	activity change, negative = inhibition
O=C1CCN(Cc2ccccc2)CC1	inactive: 18.3%
O=P1(N(CCCl)CCCl)SCCCS1	inactive: -4.24%
CCCCOc1ccc(C(=O)NCC2(N3CCOCC3)CCCCC2)cc1	inactive: -7.29%
COc1ccc(NC2CCN(CCc3ccccc3)CC2)c(OC)c1	inactive: -5.5%
CCOC(=O)N1CCC(Nc2ccc(F)cc2)CC1	inactive: 2.15%
COc1ccccc1C(=O)NCC1(N2CCOCC2)CCCCC1	inactive: 13%
CCOC(=O)N1CCC(Nc2cccc(C)c2)CC1	inactive: -8.18%
COc1cc(C(=O)NCC2(N(C)C)CCCCC2)ccc1OC(F)F	inactive: 17.4%
O=C(NCC1(N2CCCCC2)CCCCC1)c1cccs1	inactive: -0.107%
COc1ccc(C(=O)NCC2(N3CCCCC3)CCCCC2)cc1	inactive: 1.15%
CC(C)(C)OC(=O)N1CCC(N(C(=O)c2ccccc2)c2ccc(F)cc2)CC1	inactive: 0.816%
CSc1ccccc1C(=O)NCC1(N2CCCCC2)CCCCC1	inactive: -16.3%
O=C(NCC1(N2CCOCC2)CCCCC1)c1cc2ccccc2o1	inactive: 2.1%
O=C(NCC1(N2CCCCC2)CCCCC1)c1ccc(Cl)nc1	inactive: -2.24%
CCOC(=O)N1CCC(Nc2ccc(OC)cc2)CC1	inactive: -3.46%
N#CC1(Nc2ccccc2)CCN(Cc2ccccc2)CC1	inactive: 19.4%
O=C(NCC1(N2CCCCC2)CCCCC1)c1ccc(Cl)s1	inactive: 3.32%
O=C(OC1CN2CCC1CC2)C1c2ccccc2Oc2ccccc21 (configuration not stated)	inactive: 7.68%
COc1ccc(Cl)cc1C(=O)NCC1(N2CCOCC2)CCCCC1	inactive: -6.9%
COc1ccc(CN(CCCl)CCCl)cc1Cl	inactive: 17.2%
O=[N+]([O-])c1cc([N+](=O)[O-])c(OC2CCCCC2O)c([N+](=O)[O-])c1 (configuration not stated)	inactive: 1.72%
CN(C)c1cccc(C(=O)NCC2(N3CCCCC3)CCCCC2)c1	inactive: -3.63%

SMILES	activity change, negative = inhibition
COc1cc(OC)c(C(=O)NCC2(N(C)C)CCCCC2)cc1OC	inactive: -9%
O=C(NCC1(N2CCOCC2)CCCCC1)c1cc(F)c(F)cc1Cl	inactive: 17.8%
CN1CCC(Nc2cccc(F)c2)CC1	inactive: 11.2%
COc1ccc2c(c1O)-c1c(O)c(OC)cc3c1[C@H](C2)[N+](C)(C)CC3.O=[N+]([O-])c1cc([N+](=O)[O-])c([O-])c([N+](=O)[O-])c1[O-]	inactive: -17.5%
O=C(NCC1(N2CCCCC2)CCCCC1)c1cncc(Br)c1	inactive: -8.34%
CCCCOc1ccccc1C(=O)NCC1(N2CCOCC2)CCCCC1	inactive: -10.6%
CCCOc1ccc(C(=O)NCC2(N(C)C)CCCCC2)cc1OC	inactive: 3.01%
O=C(NCC1(N2CCCCC2)CCCCC1)c1ccc(OC(F)F)cc1	inactive: 6.38%
CSc1ccc(C(=O)NCC2(N3CCOCC3)CCCCC2)cc1	inactive: -1.95%
O=C(NCC1(N2CCCCC2)CCCCC1)c1cccc([N+](=O)[O-])c1	inactive: -13.3%
CCOc1ccc(C(=O)NCC2(N3CCOCC3)CCCCC2)cc1	inactive: 20.4%
CCN1CCC(Nc2ccc(Cl)cc2)CC1	inactive: -7.57%
N#CC1(Nc2ccccc2)CCN(CCc2ccccc2)CC1	inactive: 1.33%
CCCOc1cccc(C(=O)NCC2(N3CCOCC3)CCCCC2)c1	inactive: -15.7%
O=C(NCC1(N2CCCCC2)CCCCC1)c1cccc(C(F)(F)F)c1	inactive: -1.79%
O=[N+]([O-])c1cc([N+](=O)[O-])c(NCC2CCS(=O)(=O)C2)c([N+](=O)[O-])c1 (configuration not stated)	inactive: 4.44%
CN1CCN(CCOC(=O)C(O)(c2ccccc2)c2ccccc2)CC1	inactive: 0.716%
CC(C)c1ccc(C(=O)NCC2(N3CCOCC3)CCCCC2)cc1	inactive: 5.65%
COc1ccc(NC2CCN(C(=O)OC(C)(C)C)CC2)cc1	inactive: -5.53%
COc1cc(C(=O)NCC2(N3CCCCC3)CCCCC2)ccc1OC(F)F	inactive: 1.32%
O=C(NCC1(N2CCOCC2)CCCCC1)c1cc(=O)[nH]c2ccccc12	inactive: -6.24%
